The species named for experiment [1] is Homo sapiens. Briefly: Selectivity ratio of Ki for P13Kdelta (unknown origin) to Ki for human recombinant mTOR.
The species entered for experiment [2] is Homo sapiens. Briefly: Selectivity ratio of Ki for P13Kalpha (unknown origin) to Ki for human recombinant mTOR.

From ChEMBL document CHEMBL2331485, “Pyrimidoaminotropanes as potent, selective, and efficacious small molecule kinase inhibitors of the mammalian target of rapamycin (mTOR)” (J Med Chem, 2013) come the findings set out here.

Structures are written as SMILES.

For the molecule `CCNC(=O)Nc1ccc(-c2nc3c(c(N4CCOC[C@@H]4C)n2)C[C@@H]2CC[C@H]3N2C2COC2)cc1`, the values for the Ratio Ki in experiment [1] and in experiment [2] were 4450 and 1450, respectively.
